Yeast mating assay 1: variants of the scFv Ab-14

Reference: Engelhart et al. 2022, doi:10.1038/s41597-022-01779-4. File: FLAb, binding data.

The target is the same throughout: PDVDLGDISGINAS, from the HR2 region of SARS-CoV-2 spike.

Parent scFv Ab-14: VH joined to VL by a 15-residue (Gly4Ser)3 linker. Changes lie in the heavy chain CDRs alone.
VH: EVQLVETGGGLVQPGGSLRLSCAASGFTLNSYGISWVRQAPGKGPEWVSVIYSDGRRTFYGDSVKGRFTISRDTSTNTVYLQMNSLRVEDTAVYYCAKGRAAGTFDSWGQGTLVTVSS
VL: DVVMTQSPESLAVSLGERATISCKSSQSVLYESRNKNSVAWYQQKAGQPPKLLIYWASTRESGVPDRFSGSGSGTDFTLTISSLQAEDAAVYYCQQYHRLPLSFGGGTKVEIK

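Phage display of a naive human antibody library on the peptide gave the parent. Variants in AAYL49 differ from the parent at up to three CDR positions; double and triple changes were sampled at random. AlphaSeq pools MATa yeast showing the antibodies with MATalpha yeast showing the peptide. Pairs that bind mate more often; barcode pairs of the diploids are counted by sequencing. A regression on co-assayed BCL2-family reference pairs converts the normalised counts of each replicate to an apparent Kd. Mating was done three times.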

Substitutions are numbered in sequence along the VH above, starting at 1 (not Kabat).
Every variant below is changed at Y60 of the VH (sequential numbering).
Affinities are written as log10 Kd with Kd in nM; a lower number is a better binder.
A mean of the replicates is given; it leaves out those without a signal.
Where no diploid with the target was found in that replicate, the entry reads "nd": below detection, most likely a poor binder, though not proof of it.
Background: pairings of library AAYL49 with three empty control strains gave a value in 15% of cases (median 4.06, 5th percentile 2.83). Values in that range, when seen in few replicates, are hard to tell from nonspecific mating.

With V50N Y60F the result was nd, nd, nd. The variant Y60R K65L G103W showed nd, nd, nd. For R56W F59D Y60N, the assay gave nd, nd, nd. For T28F Y60W D106M, the assay gave nd, nd, 4.06. The variant Y60F K65W R100G showed nd, nd, nd. For V50E Y60C D62S, the assay gave nd, nd, nd. The variant I51R Y60I G61H showed nd, nd, nd. For Y60E A102R F105W, the assay gave nd, nd, nd.

For Y32D I34K Y60C, the assay gave nd, 3.62, nd. The variant S53P Y60W A102D showed nd, nd, 3.40. The variant Y60W F105C gave 3.75, 3.51, 4.90 (mean 4.05). The variant T58F F59D Y60T gave nd, nd, nd. With Y60N G99T G103R the result was 5.81, nd, 3.51 (mean 4.66). With Y60N R100E the result was 2.65, 2.50, 2.56 (mean 2.57). For Y32V Y60I, the assay gave nd, nd, nd. With Y60M A101C the result was nd, nd, nd.

With Y60M G99H G103P the result was nd, nd, 3.90. For S53E Y60K S63F, the assay gave 4.05, nd, 4.38 (mean 4.21). The variant Y60D G61P T104H gave 3.65, nd, 5.04 (mean 4.35). With G33Y Y52Q Y60P the result was 4.59, nd, 3.66 (mean 4.12). With N30S D54F Y60S the result was nd, nd, nd. The variant Y60C G103W T104Y showed 3.54, nd, 4.95 (mean 4.25). With Y60E R100C the result was nd, nd, nd. The variant G26S R57P Y60E gave nd, nd, nd.

With Y60T G99S T104K the result was nd, nd, nd. For Y60M S63K, the assay gave nd, nd, nd. The variant V50D Y60R R100Q gave 4.21, 4.49, 4.16 (mean 4.29). For N30S Y60H A102H, the assay gave nd, nd, 3.67. The variant F59H Y60A S107G showed 3.69, nd, nd. The variant G26E R56D Y60F gave nd, nd, nd. The variant I51S R57L Y60M showed nd, 4.24, 3.42 (mean 3.83). For Y60C G61Q A102G, the assay gave 2.72, 2.08, 2.39 (mean 2.40).

The variant L29S Y60N V64G showed nd, nd, nd. For Y32N R57F Y60F, the assay gave nd, nd, nd. The variant Y32P Y60H G61Q gave nd, nd, nd. For F59Y Y60P A101S, the assay gave nd, 3.79, 6.04 (mean 4.92). For G26W Y60R D62H, the assay gave nd, nd, nd. The variant S35L S53T Y60E gave nd, nd, nd. With F27W Y60Q the result was 3.94, 4.78, nd (mean 4.36). With Y60R G99S A101T the result was nd, nd, nd.

The variant V50N Y60S S63F gave 3.75, 4.26, nd (mean 4.01). The variant T58C Y60Q R100K gave nd, nd, nd. The variant Y60A D62G D106A gave nd, nd, nd. With N30Y Y60D D62L the result was nd, nd, nd. The variant S53G R56Y Y60P gave 4.03, 3.66, nd (mean 3.85).

The first 4 entries again:

| changes | log10 Kd (nM) by replicate | log10 Kd (nM), mean |
|---|---|---|
| V50N Y60F | nd, nd, nd | nd |
| Y60R K65L G103W | nd, nd, nd | nd |
| R56W F59D Y60N | nd, nd, nd | nd |
| T28F Y60W D106M | nd, nd, 4.06 | 4.06 |

In this assay the parent's reference entry averaged 0.65; its copy inside this library read 4.11 (one replicate of three).